Experiment: Binding affinity to chymotrypsin (unknown origin) assessed as acetylation at pH 7
Conditions: Homo sapiens

## O=C(Oc1ccc([N+](=O)[O-])cc1[N+](=O)[O-])c1ccc([N+](=O)[O-])cc1
  log K: 6.17
